One may read the pIC50 as the IC50 on a negative log10 scale, so that one unit is a factor of ten. Read a high pIC50 as a small IC50.

Amino acid sequences for entries named in this document (tags omitted).
UniProt P06276, whole entry: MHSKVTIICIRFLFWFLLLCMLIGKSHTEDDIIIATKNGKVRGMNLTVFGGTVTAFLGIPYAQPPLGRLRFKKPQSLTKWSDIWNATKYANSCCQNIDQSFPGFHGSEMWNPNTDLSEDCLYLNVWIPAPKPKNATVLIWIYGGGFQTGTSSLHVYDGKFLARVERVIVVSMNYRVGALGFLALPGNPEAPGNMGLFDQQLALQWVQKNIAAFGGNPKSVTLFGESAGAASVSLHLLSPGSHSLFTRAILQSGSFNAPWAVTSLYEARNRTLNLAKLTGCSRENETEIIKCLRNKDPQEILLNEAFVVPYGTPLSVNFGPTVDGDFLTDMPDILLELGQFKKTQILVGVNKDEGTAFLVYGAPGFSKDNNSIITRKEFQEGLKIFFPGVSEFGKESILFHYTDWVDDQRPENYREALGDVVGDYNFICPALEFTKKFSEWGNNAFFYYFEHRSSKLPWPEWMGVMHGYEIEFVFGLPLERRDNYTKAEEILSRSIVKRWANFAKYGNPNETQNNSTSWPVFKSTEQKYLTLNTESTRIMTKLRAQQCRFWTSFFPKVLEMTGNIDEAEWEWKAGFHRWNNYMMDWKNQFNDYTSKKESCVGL

pIC50: −log10 of the molar value.

IC50 data for 1 compound are collected here from ChEMBL document CHEMBL5528025, “Design, synthesis and biological evaluation of carbamate derivatives incorporating multifunctional carrier scaffolds as pseudo-irreversible cholinesterase inhibitors for the treatment of Alzheimer's disease” (Eur J Med Chem, 2024).

The assay deals with Cholinesterase (Homo sapiens, UniProt P06276).

`CCN(C)C(=O)Oc1cccc([C@H](C)N(C)C)c1` [RIVASTIGMINE] had a pIC50 of 6.98.
